Experimental data: ChEMBL document CHEMBL5518199, “Discovery of Effective Dual PROTAC Degraders for Neurodegenerative Disease-Associated Aggregates” (J Med Chem, 2024)
Blank lines part the entries; values can stand above or below the compound they belong to. The source made the active and inactive calls. No cut-off for these calls is given here.

Amino acid sequences for entries named in this document (tags omitted). A change or cut given only in a name is not applied to a line headed by its entry.
UniProt Q96SW2: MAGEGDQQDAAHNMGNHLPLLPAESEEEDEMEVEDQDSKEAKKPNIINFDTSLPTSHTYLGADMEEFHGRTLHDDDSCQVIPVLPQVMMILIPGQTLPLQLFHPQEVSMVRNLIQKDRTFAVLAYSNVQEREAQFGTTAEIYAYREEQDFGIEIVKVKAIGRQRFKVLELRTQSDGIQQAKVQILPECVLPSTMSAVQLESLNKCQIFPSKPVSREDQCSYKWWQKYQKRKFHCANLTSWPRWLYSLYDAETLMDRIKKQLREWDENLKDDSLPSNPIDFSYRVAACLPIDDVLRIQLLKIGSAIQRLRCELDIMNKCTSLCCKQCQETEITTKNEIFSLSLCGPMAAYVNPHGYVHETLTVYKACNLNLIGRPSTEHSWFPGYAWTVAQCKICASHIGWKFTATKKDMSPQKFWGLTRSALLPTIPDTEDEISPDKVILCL
UniProt P40337, whole entry, looked up: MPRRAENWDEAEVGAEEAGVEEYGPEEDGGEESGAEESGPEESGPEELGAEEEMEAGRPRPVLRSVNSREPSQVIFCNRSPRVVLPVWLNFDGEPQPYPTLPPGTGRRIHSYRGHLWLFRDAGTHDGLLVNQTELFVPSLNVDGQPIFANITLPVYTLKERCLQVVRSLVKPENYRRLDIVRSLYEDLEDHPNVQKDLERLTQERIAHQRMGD

Columns and labels:
[1] = biological target: T1, Protein cereblon/Alpha-synuclein (Homo sapiens) (UniProt P37840+Q96SW2); assay: PROTAC activity at CRBN/alpha-synuclein in HEK293 cells assessed as induction of alpha-synuclein aggregates by immunoblot analysis; type: cell-based
[2] = biological target: T2, von Hippel-Lindau disease tumor suppressor/Alpha-synuclein (Homo sapiens) (UniProt P37840+P40337); assay: PROTAC activity at VHL/alpha-synuclein in HEK293 cells assessed as decrease in alpha-synuclein aggregates measured for 48 hrs by immunoblot analysis; type: cell-based
[3] = biological target: T2, von Hippel-Lindau disease tumor suppressor/Alpha-synuclein (Homo sapiens); assay: PROTAC activity at VHL/alpha-synuclein in HEK293 cells assessed as decrease in alpha-synuclein phosphorylation at S129 residue measured for 48 hrs by immunoblot analysis; type: cell-based
HEK-293T = assay: Effect on GSPT1 level in HEK293T cells upto 10 uM incubated for 24 hrs by Western blot analysis; type: functional, cell-based; conditions: Homo sapiens
SH-SY5Y [4] = assay: Neuroprotective activity against human SH-SY5Y cells assessed as reduction in ROS level incubated for 24 hrs by DCFH-DA staining based laser scanning microscopic analysis; type: functional, cell-based
Cell membrane = assay: Induction of mitochondrial membrane potential depolarization in human SH-SY5Y incubated for 24 hrs by JC-1 staining based flow cytometric analysis; type: cell membranes
SH-SY5Y [5] = assay: Cytotoxicity against human SH-SY5Y cells assessed as reduction in cell viability upto 10 uM by CCK-8 assay; type: functional, cell-based
Mus musculus [6] = assay: Anti-parkinson's disease activity in MPTP-induced C57BL/6 mouse model assessed as change in alpha-synuclein level in brain at 2 to 8 mg/kg, iv preadministered with MPTP for 7 days followed by compound administration for another 7 days by immunoblot analysis; type: functional, organism-based; conditions: dose 2-8 mg/kg, time 7.0 day
Mus musculus [7] = assay: Anti-parkinson's disease activity in MPTP-induced C57BL/6 mouse model assessed as change in phosphorylated S129 level in brain at 2 to 8 mg/kg, iv preadministered with MPTP for 7 days followed by compound administration for another 7 days by immunoblot analysis; type: functional, organism-based; conditions: dose 2-8 mg/kg, time 7.0 day
Mus musculus [8] = assay: Anti-parkinson's disease activity in MPTP-induced C57BL/6 mouse model assessed as decrease in total tau level in brain at 8 mg/kg, iv preadministered with MPTP for 7 days followed by compound administration for another 7 days by immunoblot analysis; type: functional, organism-based; conditions: time 7.0 day
Mus musculus [9] = assay: Anti-parkinson's disease activity in MPTP-induced C57BL/6 mouse model assessed as decrease in phosphorylated tau level in brain at 8 mg/kg, iv preadministered with MPTP for 7 days followed by compound administration for another 7 days by immunoblot analysis; type: functional, organism-based; conditions: time 7.0 day
Mus musculus [10] = assay: Downregulation of alpha-synuclein level in substantia nigra pars compacta of MPTP-treated C57BL/6 mouse at 8 mg/kg, iv preadministered with MPTP for 7 days followed by compound administration for another 7 days by immunohistochemistry analysis; type: functional, organism-based; conditions: time 7.0 day
Mus musculus [11] = assay: Downregulation of phosphorylated tau at S404 residue level in hippocampus CA1 region of MPTP-treated C57BL/6 mouse at 8 mg/kg, iv preadministered with MPTP for 7 days followed by compound administration for another 7 days by immunohistochemistry analysis; type: functional, organism-based; conditions: time 7.0 day
Mus musculus [12] = assay: Downregulation of phosphorylated tau at S404 residue level in hippocampus CA3 region of MPTP-treated C57BL/6 mouse at 8 mg/kg, iv preadministered with MPTP for 7 days followed by compound administration for another 7 days by immunohistochemistry analysis; type: functional, organism-based; conditions: time 7.0 day
Mus musculus [13] = assay: Downregulation of total aggregated protein level in substantia nigra pars compacta of MPTP-treated C57BL/6 mouse at 8 mg/kg, iv preadministered with MPTP for 7 days followed by compound administration for another 7 days by ThS staining based analysis; type: functional, organism-based; conditions: time 7.0 day
Mus musculus [14] = assay: Neuroprotective activity in MPTP-treated C57BL/6 mouse assessed as neuron viability in substantia nigra pars compacta at 8 mg/kg, iv preadministered with MPTP for 7 days followed by compound administration for another 7 days by Nissl staining based microscopy; type: functional, organism-based; conditions: time 7.0 day
Mus musculus [15] = assay: Neuroprotective activity in MPTP-treated C57BL/6 mouse assessed as decrease in impaired neurons in substantia nigra pars compacta at 8 mg/kg, iv preadministered with MPTP for 7 days followed by compound administration for another 7 days by FJB staining based microscopy; type: functional, organism-based; conditions: time 7.0 day
[16] = biological target: T1, Protein cereblon/Alpha-synuclein (Homo sapiens); assay: PROTAC activity at CRBN/alpha-synuclein preformed fibrils seeded in HEK293T cells assessed as decrease in alpha-synuclein aggregates at 2.5 to 5 uM measured for 24 hrs by immunoblot analysis; type: cell-based; conditions: HEK293, dose 2.5-5 µM

Compound: Cc1ncsc1-c1ccc(CNC(=O)[C@@H]2C[C@@H](O)CN2C(=O)[C@@H](NC(=O)CCOCCOCCNc2ccc(-c3nc4cc(Cl)ccc4s3)cc2)C(C)(C)C)cc1
Activity [2]: inactive
Activity [3]: inactive

Compound: Cc1ncsc1-c1ccc(CNC(=O)[C@@H]2C[C@@H](O)CN2C(=O)[C@@H](NC(=O)CCOCCOCCOCCNc2ccc(-c3nc4cc(Cl)ccc4s3)cc2)C(C)(C)C)cc1
Activity [2]: inactive
Activity [3]: inactive

Compound: Cc1ccc2nc(-c3ccc(NCCOCCOCCOCCC(=O)N[C@H](C(=O)N4C[C@H](O)C[C@H]4C(=O)NCc4ccc(-c5scnc5C)cc4)C(C)(C)C)cc3)sc2c1
Activity [2]: inactive
Activity [3]: inactive

Further lines, with some results ahead:

Activity [1]: inactive
Compound: O=C(CCOCCOCCOCCNc1ccc(-c2nc3cc(Cl)ccc3s2)cc1)NCCOCCOCCNc1cccc2c1C(=O)N(C1CCC(=O)NC1=O)C2=O (centres undefined)

Activity (Cell membrane): Active
Compound: Cc1ccc2nc(-c3ccc(NCCOCCOCCOCCNC(=O)COc4cccc5c4C(=O)N(C4CCC(=O)NC4=O)C5=O)cc3)sc2c1 (centres undefined)
Activity (HEK-293T): Active
Activity (SH-SY5Y [4]): Active
Activity (SH-SY5Y [5]): Active
Activity (Mus musculus [6]): Active
Activity (Mus musculus [7]): Active
Activity (Mus musculus [8]): Active
Activity (Mus musculus [9]): Active
Activity (Mus musculus [10]): Active
Activity (Mus musculus [11]): Active
Activity (Mus musculus [12]): Active
Activity (Mus musculus [13]): Active
Activity (Mus musculus [14]): Active
Activity (Mus musculus [15]): Active

Activity [16]: Active
Compound: O=C(COc1cccc2c1C(=O)N(C1CCC(=O)NC1=O)C2=O)NCCOCCOCCOCCNc1ccc(-c2nc3ccccc3s2)cc1 (centres undefined)

Activity [1]: inactive
Compound: Cc1ccc2nc(-c3ccc(NCCOCCNC(=O)COc4ccc(C5CCC(=O)NC5=O)cc4)cc3)sc2c1 (centres undefined)

Activity [1]: inactive
Compound: Cc1ccc2nc(-c3ccc(NCCOCCOCCOCCC(=O)NCCOCCOCCNc4cccc5c4C(=O)N(C4CCC(=O)NC4=O)C5=O)cc3)sc2c1 (centres undefined)
